Reference: patent US10961242B2, “Compounds as autotaxin inhibitors and pharmaceutical compositions comprising the same” (LegoChem Biosciences, Inc., priority 2018, dated 2021)
pIC50: −log10 of the molar value. Some compounds may have been tested in ways that are not shown here.

Target: human ENPP2 (Homo sapiens (Human), UniProt Q13822)
Assay: Inhibitory activity on human ENPP2 (FS-3 assay)
Conditions: human ENPP2, FS-3 substrate, 30 min at 37° C.

1-(1H-1,2,3-benzotrizol-5-yl)-3-methyl-8[2-({[3-(trifluoromethoxy)phenyl]methyl}amino)pyrimidine-5-carbonyl]-1,3,8-triazaspiro[4,5]-decane-2,4-dione
pIC50: 8.05
